Source: PubChem BioAssay (NCI)
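These data come from cells grown in 96-well plates and exposed to compound for 48 hours at five concentrations. GI50 is the concentration that inhibits growth by half. TGI is the concentration that stops growth completely.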

How the values were obtained:
Assay in all cases: growth of human tumour cells (NCI), 48 h
[1] = system: MDA-MB-231 breast
[2] = system: SF-539 CNS
[3] = system: SNB-75 CNS
[4] = system: KM12 colon
[5] = system: HS 578T breast
[6] = system: SW-620 colon
[7] = system: SK-MEL-2 melanoma
[8] = system: 786-0 renal
[9] = system: NCI-H226 lung
[10] = system: RPMI-8226 leukemia
[11] = system: T-47D breast
[12] = system: NCI-H23 lung
[13] = system: HOP-62 NSCLC
[14] = system: MDA-MB-435
[15] = system: SNB-19 CNS
[16] = system: BT-549 breast
[17] = system: EKVX NSCLC
[18] = system: MALME-3M melanoma
[19] = system: HOP-92 NSCLC
[20] = system: UACC-62 melanoma
[21] = system: TK-10 renal
[22] = system: PC-3 prostate
[23] = system: NCI-H460 lung
[24] = system: HCC-2998 colon
[25] = system: DU-145 prostate
[26] = system: SF-295 CNS
[27] = system: OVCAR-4 ovarian
[28] = system: MOLT-4 leukemia
[29] = system: IGROV1 ovarian

## Cc1ccc2ccc(C)c(C)c2c1.O=[N+]([O-])c1cc([N+](=O)[O-])c(O)c([N+](=O)[O-])c1O
[1]
  GI50: > 100 µM
  TGI: > 100 µM
[2]
  GI50: > 100 µM
  TGI: > 100 µM
[3]
  GI50: > 100 µM
  TGI: > 100 µM
[4]
  GI50: > 100 µM
  TGI: > 100 µM
[5]
  GI50: > 100 µM
  TGI: > 100 µM
[6]
  GI50: > 100 µM
  TGI: > 100 µM
[7]
  GI50: > 100 µM
  TGI: > 100 µM
[8]
  GI50: > 100 µM
  TGI: > 100 µM
[9]
  GI50: > 100 µM
  TGI: > 100 µM
[10]
  GI50: > 100 µM
  TGI: > 100 µM
[11]
  GI50: > 100 µM
  TGI: > 100 µM
[12]
  GI50: > 100 µM
  TGI: > 100 µM
[13]
  GI50: > 100 µM
  TGI: > 100 µM
[14]
  GI50: > 100 µM
  TGI: > 100 µM
[15]
  GI50: > 100 µM
  TGI: > 100 µM
[16]
  GI50: > 100 µM
  TGI: > 100 µM
[17]
  GI50: 42 µM
  TGI: > 100 µM
[18]
  GI50: > 100 µM
  TGI: > 100 µM
[19]
  GI50: 67.8 µM
  TGI: > 100 µM
[20]
  GI50: > 100 µM
  TGI: > 100 µM
[21]
  GI50: > 100 µM
  TGI: > 100 µM
[22]
  GI50: > 100 µM
  TGI: > 100 µM
[23]
  GI50: 0.0375 µM
  TGI: > 100 µM
[24]
  GI50: > 100 µM
  TGI: > 100 µM
[25]
  GI50: > 100 µM
  TGI: > 100 µM
[26]
  GI50: > 100 µM
  TGI: > 100 µM
[27]
  GI50: > 100 µM
  TGI: > 100 µM
[28]
  GI50: > 100 µM
  TGI: > 100 µM
[29]
  GI50: > 100 µM
